Some results are limits rather than exact numbers.

This assay can be described thus: Selectivity ratio of IC50 for PI3Kalpha to IC50 for mTOR.
Take `CN(Cc1ccccc1)C(=O)C1CCN(c2ccnc3c2c(/C=C2\Oc4ccc(NC(=O)Nc5cccnc5)cc4C2=O)cn3C)CC1`: the Ratio IC50 is above 98. For `CN(Cc1ccccn1)C(=O)C1CCN(c2ccnc3c2c(/C=C2\Oc4ccc(NC(=O)Nc5cccnc5)cc4C2=O)cn3C)CC1` the value was 187. To `CNC(=O)Nc1ccc2c(c1)C(=O)/C(=C/c1cn(C)c3nccc(N4CC5CCC(C4)O5)c13)O2` belongs 61; to `Cn1cc(/C=C2\Oc3ccc(NC(=O)Nc4cccnc4)cc3C2=O)c2c(N3CCOCC3)ccnc21`, 4; to `CN(C)C(=O)C1CCN(c2ccnc3c2c(/C=C2\Oc4ccc(NC(=O)Nc5cccnc5)cc4C2=O)cn3C)CC1`, 193.

As to `CN(C(=O)C1CCN(c2ccnc3c2c(/C=C2\Oc4ccc(NC(=O)Nc5cccnc5)cc4C2=O)cn3C)CC1)c1cccnc1`, the Ratio IC50 came out at 380.

For `CN(C)CCNC(=O)Nc1ccc2c(c1)C(=O)/C(=C/c1cn(C)c3nccc(N4CC5CCC(C4)O5)c13)O2`, the Ratio IC50 came out at 4. On to `CN(C)C1CCN(C(=O)C2CCN(c3ccnc4c3c(/C=C3\Oc5ccc(NC(=O)Nc6cccnc6)cc5C3=O)cn4C)CC2)C1` (configuration not stated), for which the Ratio IC50 is above 909. For `CCN(CC)C(=O)C1CCN(c2ccnc3c2c(/C=C2\Oc4ccc(NC(=O)Nc5cccnc5)cc4C2=O)cn3C)CC1` the value was 2.7; for `CNC(=O)Nc1ccc2c(c1)C(=O)/C(=C/c1cn(C)c3nccc(-c4ccccc4)c13)O2`, 6; for `Cn1cc(/C=C2\Oc3ccc(NC(=O)Nc4cccnc4)cc3C2=O)c2c(N3CC4CCC(C3)O4)ccnc21`, 145. For the compound `CN(Cc1cccnc1)C(=O)C1CCN(c2ccnc3c2c(/C=C2\Oc4ccc(NC(=O)Nc5cccnc5)cc4C2=O)cn3C)CC1`, the Ratio IC50 amounted to 94.

Consider `Cn1cc(/C=C2\Oc3ccc(NC(=O)Nc4cccnc4)cc3C2=O)c2c(N3CC4CCC3CO4)ccnc21` (configuration not stated), for which the Ratio IC50 is 33. To `Cn1cc(/C=C2\Oc3ccc(NC(=O)Nc4cccnc4)cc3C2=O)c2c(N3CCC(C(=O)N4C5CCC4COC5)CC3)ccnc21` belongs 644; to `Cn1cc(/C=C2\Oc3ccc(NC(=O)Nc4cccnc4)cc3C2=O)c2c(N3CCC(C(=O)N4CC5CCC(C4)O5)CC3)ccnc21`, 98.6.

In the case of `CNC(=O)Nc1cccc2c1C(=O)/C(=C/c1cn(C)c3nccc(-c4ccccc4)c13)O2`, the Ratio IC50 is above 2.9. To `CCNC(=O)Nc1ccc2c(c1)C(=O)/C(=C/c1cn(C)c3nccc(N4CC5CCC(C4)O5)c13)O2` belongs 5.5.

The record behind these values is ChEMBL document CHEMBL1156282, “4-Substituted-7-azaindoles bearing a ureidobenzofuranone moiety as potent and selective, ATP-competitive inhibitors of the mammalian target of rapamycin (mTOR)” (Bioorg Med Chem Lett, 2010).
